Results as given in patent US9260700B2 (priority 2011, dated 2016).

Columns and labels:
[1] = system: Myrothecium verrucaria bilirubin oxidase (BOD), produced in Pichia pastoris; settings: pH 6.5, with respect to ABTS; cited from earlier work
[2] = target: Magnaporthe oryzae bilirubin oxidase (BOD), produced in Pichia pastoris, SEQ. ID. No.3 (SEQ. ID. No.1 with additional N-terminal serine) (Pyricularia oryzae, UniProt G4MQU0)
[3] = system: Myrothecium verrucaria bilirubin oxidase (BOD); settings: pH 6.5; Kataoka et al. 2005; cited from earlier work

**Q.** Which kcat [1] does the source give for `CCn1c(=NN=c2sc3cc(S(=O)(=O)O)ccc3n2CC)sc2cc(S(=O)(=O)O)ccc21` [ABTS, 2,2′-azino-bis(3-ethylbenzothiazoline-6-sulphonic acid)] here?
**A.** The kcat was 164 s⁻¹.

**Q.** And the kcat ([2]; 37° C., 0.1M citrate/phosphate buffer pH 4, ABTS 0 to 4 mM)?
**A.** The kcat was 664 s⁻¹.

**Q.** What about the “kcat (for ABTS)” value ([2]; Table I, substrate ABTS) of the same molecule?
**A.** Its value is 668 s⁻¹.

**Q.** And the kcat [3]?
**A.** Its kcat is 115 s⁻¹.
